# Apparent affinities of Ab-95 variants for a coronavirus HR2 peptide

Data: MIT Lincoln Laboratory AlphaSeq set, Engelhart et al. 2022, doi:10.1038/s41597-022-01779-4, as distributed in FLAb.

All variants were tested on one target, the spike HR2 peptide PDVDLGDISGINAS (SARS-CoV-2).

Ab-95 is the parent antibody, in scFv form: VH, then the linker GGGGSGGGGSGGGGS, then VL. The heavy chain is unchanged in all variants.
VH: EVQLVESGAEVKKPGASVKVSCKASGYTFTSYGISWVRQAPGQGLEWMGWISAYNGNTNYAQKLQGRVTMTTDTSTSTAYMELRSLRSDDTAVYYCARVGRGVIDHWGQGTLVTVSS
VL: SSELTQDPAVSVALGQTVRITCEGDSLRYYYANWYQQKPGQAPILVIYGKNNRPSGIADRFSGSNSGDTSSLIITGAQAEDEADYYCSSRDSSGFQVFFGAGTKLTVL

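Variants in AAYL52 differ from the parent at up to three CDR positions; double and triple changes were sampled at random. The assay is AlphaSeq: two haploid yeast populations carry antibody and antigen on their surface. After mating in shaken culture at 30 °C for 16 h, diploids were selected and their barcode pairs sequenced. The ratio of observed to expected reads was calibrated, replicate by replicate, on BCL2-family standards whose Kd was known from biolayer interferometry. There are three technical replicates.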

Sequences are complete VL domains. All variants listed here change Y30 of the VL, counted from its first residue. The read-out is the apparent dissociation constant on a log10 scale (nM): the lower, the stronger. "ND" means that the variant was in the library but no mating with the target was seen in that replicate; the authors take this as a sign of poor binding, and no number exists. As a blank, each scFv also met three strains without target: over library AAYL52, 28% of these pairings were detected, typically at 3.91 and seldom below 2.90. The control count says in how many pairings with the empty strains this scFv gave a signal. For reference, the parent read 2.31 as the reference entry and 2.25 as a member of this library.

- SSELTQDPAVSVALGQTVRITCEGDSIRYVYANWYQQKPGQAPILVIYGKNNRPSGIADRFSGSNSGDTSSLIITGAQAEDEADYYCSSRDSQGFQVFFGAGTKLTVL: 2.52, 3.03, 3.44 (controls 3 of 9)
- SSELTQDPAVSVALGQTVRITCEGDSLRDRYANWYQQKPGQAPILVIYGKNNRPWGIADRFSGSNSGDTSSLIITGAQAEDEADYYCSSRDSSGFQVFFGAGTKLTVL: 1.19, 1.08, 0.53 (controls 1 of 9)
- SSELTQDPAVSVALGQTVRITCEGISLRYEYANWYQQKPGQAPILVIYGANNRPSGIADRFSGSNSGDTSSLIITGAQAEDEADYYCSSRDSSGFQVFFGAGTKLTVL: 1.86, 1.78, 1.34 (controls 5 of 9)
- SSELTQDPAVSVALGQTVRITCEGDSLRYKYANWYQQKPGQAPILVIYGKNNRPSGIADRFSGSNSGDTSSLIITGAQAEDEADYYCSSCDSMGFQVFFGAGTKLTVL: ND, ND, ND (controls 0 of 9)
- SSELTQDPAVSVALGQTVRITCCGDSLRYFYAIWYQQKPGQAPILVIYGKNNRPSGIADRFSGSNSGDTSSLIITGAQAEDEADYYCSSRDSSGFQVFFGAGTKLTVL: ND, ND, 4.13 (controls 1 of 9)
- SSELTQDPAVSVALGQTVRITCEGDSLRYQYGNWYQQKPGQAPILVIYGKNNRPSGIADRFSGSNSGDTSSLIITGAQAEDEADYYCSSRDSSQFQVFFGAGTKLTVL: 3.34, 3.26, ND (controls 3 of 9)
- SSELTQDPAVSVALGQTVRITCEGDSLRYDYANWYQQKPGQAPILVIYGRNNIPSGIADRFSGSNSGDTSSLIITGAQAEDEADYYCSSRDSSGFQVFFGAGTKLTVL: 2.47, 2.56, 2.57 (controls 4 of 9)
- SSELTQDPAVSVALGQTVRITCEGDSLRYVYANWYQQKPGQAPILVIYGKNMRPSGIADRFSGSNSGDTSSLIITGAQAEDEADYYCSSRDSSFFQVFFGAGTKLTVL: ND, ND, 4.63 (controls 2 of 9)
- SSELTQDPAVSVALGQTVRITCEGDSLRYKYANWYQQKPGQAPILVIYGKRNRPSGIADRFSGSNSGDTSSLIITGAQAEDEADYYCSSIDSSGFQVFFGAGTKLTVL: ND, ND, ND (controls 0 of 9)
- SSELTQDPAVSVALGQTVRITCEGDSLRYNYANWYQQKPGQAPILVIYGKRNWPSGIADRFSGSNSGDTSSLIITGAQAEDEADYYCSSRDSSGFQVFFGAGTKLTVL: 2.55, 3.43, ND (controls 2 of 9)
- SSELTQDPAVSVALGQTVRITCEPDSLRYLYANWYQQKPGQAPILVIYGKNNRDSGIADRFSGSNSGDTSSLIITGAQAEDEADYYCSSRDSSGFQVFFGAGTKLTVL: 4.50, ND, ND (controls 2 of 9)
- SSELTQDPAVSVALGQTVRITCEGDSLRYSYANWYQQKPGQAPILVIYGVNNAPSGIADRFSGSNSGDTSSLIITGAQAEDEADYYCSSRDSSGFQVFFGAGTKLTVL: 2.27, 2.13, 1.81 (controls 4 of 9)
- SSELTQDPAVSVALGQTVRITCEGDSLRYLYANWYQQKPGQAPILVIYLKNNRPSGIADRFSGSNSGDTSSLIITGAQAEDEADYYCSSRVSSGFQVFFGAGTKLTVL: ND, ND, ND (controls 1 of 9)
- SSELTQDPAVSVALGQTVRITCEGDSLRYWYANWYQQKPGQAPILVIYLKNNRPSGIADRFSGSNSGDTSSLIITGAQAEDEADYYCESRDSSGFQVFFGAGTKLTVL: 4.03, ND, ND (controls 2 of 9)
- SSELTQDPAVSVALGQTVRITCEGDLLRYHYANWYQQKPGQAPILVIYGDNNRPSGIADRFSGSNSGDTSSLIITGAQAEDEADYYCSSRDSSGFQVFFGAGTKLTVL: 1.85, 1.50, 1.56 (controls 0 of 9)